Results taken from ChEMBL document CHEMBL1140703, “Design, synthesis, and biological evaluation of classical and nonclassical 2-amino-4-oxo-5-substituted-6-methylpyrrolo[3,2-d]pyrimidines as dual thymidylate synthase and dihydrofolate reductase inhibitors” (J Med Chem, 2008).

Experiment: Inhibition of Toxoplasma gondii DHFR

Nc1nc2[nH]cc(CCc3ccc(C(=O)N[C@@H](CCC(=O)O)C(=O)O)cc3)c2c(=O)[nH]1 [PEMETREXED]
IC50: 0.43 µM
